Assay [1] addresses LC3B protein (microtubule-associated protein light chain 3B), purified, tags removed (UniProt Q9GZQ8). Kind of assay: FP.
For the next assay, the target named is T1, LC3B (Homo sapiens, UniProt Q9GZQ8).
T1 construct: His6 (N, cleaved yes); MBP (N, cleaved yes); made in house; host or cells: E. coli BL21-codonplus (DE3)-RIL
Description: Fluorescence polarization binding of CF-labelled LIR peptides to purified LC3B. Conditions: CF-labelled peptide 2.5 µM (25 µL) + LC3B 0.2–330 µM (25 µL), HEPES buffer 50 mM pH 7.2, 50 mM NaCl, 2 mM DTE, one site-specific binding fit, three independent replications, read-out: Kd (dissociation constant) for LC3B. The protocol:
Binding experiments were done in a black 384-microwell plate. The CF-labelled peptides and purified LC3B protein were dissolved in a HEPES buffer. Each CF-labelled peptide in a volume of 25 µL at a concentration of 2.5 µM was combined with 25 µL of LC3B at a concentration range from 0.2–330 µM. The fluorescent polarization was measured with the excitation and emission wavelengths of […], respectively. The obtained polarization data were corrected by subtraction of the peptide alone (blank). The dissociation constant (Kd) was quantified using a nonlinear curve fitting the site-specific binding on GraphPad Prism 5.0 for Windows (GraphPad Software, La Jolla, CA, USA). Experiments were performed in three independent replications.
(In fluorescence polarisation assays a small probe gives low polarisation when free and higher when bound to something large.)

These results are taken from article PMC8625360, “Direct Interaction of ATP7B and LC3B Proteins Suggests a Cooperative Role of Copper Transportation and Autophagy” (Cells, 2021).

The term Kd denotes the equilibrium constant for the complex coming apart. “LIR3 peptide of ATP7B with S1453A, CF-labelled (from UniProt P35670)” displayed a Kd in assay [1] of 5.13 µM.

Consider `CC(C)C[C@H](NC(=O)[C@H](CC(C)C)NC(=O)[C@H](CC(C)C)NC(=O)[C@H](COP(=O)(O)O)NC(=O)[C@H](Cc1c[nH]c2ccccc12)NC(=O)[C@H](CCCCN)NC(=O)[C@H](CC(=O)O)NC(=O)CNC(=O)[C@H](CC(=O)O)NC(=O)[C@H](CC(=O)O)NC(=O)[C@H](CC(=O)O)NC(=O)[C@H](C)NC(=O)c1ccc2c(c1)C(=O)OC21c2ccc(O)cc2Oc2cc(O)ccc21)C(=O)N[C@@H](CC(N)=O)C(=O)NCC(=O)N[C@@H](CCCNC(=N)N)C(=O)N[C@@H](CC(=O)O)C(N)=O` [LIR3^S1453-PO4], for which, at LC3B, the Kd was determined as 12.9 ± 0.9 µM.

As for `CC(C)C[C@H](NC(=O)[C@H](C)NC(=O)[C@H](Cc1c[nH]c2ccccc12)NC(=O)[C@H](CCCCN)NC(=O)[C@H](CC(=O)O)NC(=O)CNC(=O)[C@H](CC(=O)O)NC(=O)[C@H](CC(=O)O)NC(=O)[C@H](CC(=O)O)NC(=O)[C@H](C)NC(=O)c1ccc2c(c1)C(=O)OC21c2ccc(O)cc2Oc2cc(O)ccc21)C(=O)N[C@@H](CC(C)C)C(=O)N[C@@H](CC(C)C)C(=O)N[C@@H](CC(N)=O)C(=O)NCC(=O)N[C@@H](CCCNC(=N)N)C(=O)N[C@@H](CC(=O)O)C(N)=O` [LIR3^S1453A], on LC3B, the Kd was 5.13 ± 0.34 µM.

For `CC(C)C[C@H](NC(=O)[C@H](CC(C)C)NC(=O)[C@H](CC(C)C)NC(=O)[C@H](CO)NC(=O)[C@H](Cc1c[nH]c2ccccc12)NC(=O)[C@H](CCCCN)NC(=O)[C@H](CC(=O)O)NC(=O)CNC(=O)[C@H](CC(=O)O)NC(=O)[C@H](CC(=O)O)NC(=O)[C@H](CC(=O)O)NC(=O)[C@H](C)NC(=O)c1ccc2c(c1)C(=O)OC21c2ccc(O)cc2Oc2cc(O)ccc21)C(=O)N[C@@H](CC(N)=O)C(=O)NCC(=O)N[C@@H](CCCNC(=N)N)C(=O)N[C@@H](CC(=O)O)C(N)=O` [LIR3], the Kd at LC3B worked out at 3.72 ± 0.17 µM.

With `CC(C)C[C@H](NC(=O)[C@H](C)NC(=O)[C@H](CC(C)C)NC(=O)[C@H](CO)NC(=O)[C@H](Cc1c[nH]c2ccccc12)NC(=O)[C@H](CCCCN)NC(=O)[C@H](CC(=O)O)NC(=O)CNC(=O)[C@H](CC(=O)O)NC(=O)[C@H](CC(=O)O)NC(=O)[C@H](CC(=O)O)NC(=O)[C@H](C)NC(=O)c1ccc2c(c1)C(=O)OC21c2ccc(O)cc2Oc2cc(O)ccc21)C(=O)N[C@@H](CC(N)=O)C(=O)NCC(=O)N[C@@H](CCCNC(=N)N)C(=O)N[C@@H](CC(=O)O)C(N)=O` [LIR3^L1455A], the Kd at LC3B stood at 43 ± 1 µM.
